Tests used:
[1] = biological target: T1, Macrophage-stimulating protein receptor (Homo sapiens) (UniProt Q04912); assay: Inhibition of MST1R (unknown origin) at 10 uM by radiometric assay relative to control
T1 sequence (whole entry): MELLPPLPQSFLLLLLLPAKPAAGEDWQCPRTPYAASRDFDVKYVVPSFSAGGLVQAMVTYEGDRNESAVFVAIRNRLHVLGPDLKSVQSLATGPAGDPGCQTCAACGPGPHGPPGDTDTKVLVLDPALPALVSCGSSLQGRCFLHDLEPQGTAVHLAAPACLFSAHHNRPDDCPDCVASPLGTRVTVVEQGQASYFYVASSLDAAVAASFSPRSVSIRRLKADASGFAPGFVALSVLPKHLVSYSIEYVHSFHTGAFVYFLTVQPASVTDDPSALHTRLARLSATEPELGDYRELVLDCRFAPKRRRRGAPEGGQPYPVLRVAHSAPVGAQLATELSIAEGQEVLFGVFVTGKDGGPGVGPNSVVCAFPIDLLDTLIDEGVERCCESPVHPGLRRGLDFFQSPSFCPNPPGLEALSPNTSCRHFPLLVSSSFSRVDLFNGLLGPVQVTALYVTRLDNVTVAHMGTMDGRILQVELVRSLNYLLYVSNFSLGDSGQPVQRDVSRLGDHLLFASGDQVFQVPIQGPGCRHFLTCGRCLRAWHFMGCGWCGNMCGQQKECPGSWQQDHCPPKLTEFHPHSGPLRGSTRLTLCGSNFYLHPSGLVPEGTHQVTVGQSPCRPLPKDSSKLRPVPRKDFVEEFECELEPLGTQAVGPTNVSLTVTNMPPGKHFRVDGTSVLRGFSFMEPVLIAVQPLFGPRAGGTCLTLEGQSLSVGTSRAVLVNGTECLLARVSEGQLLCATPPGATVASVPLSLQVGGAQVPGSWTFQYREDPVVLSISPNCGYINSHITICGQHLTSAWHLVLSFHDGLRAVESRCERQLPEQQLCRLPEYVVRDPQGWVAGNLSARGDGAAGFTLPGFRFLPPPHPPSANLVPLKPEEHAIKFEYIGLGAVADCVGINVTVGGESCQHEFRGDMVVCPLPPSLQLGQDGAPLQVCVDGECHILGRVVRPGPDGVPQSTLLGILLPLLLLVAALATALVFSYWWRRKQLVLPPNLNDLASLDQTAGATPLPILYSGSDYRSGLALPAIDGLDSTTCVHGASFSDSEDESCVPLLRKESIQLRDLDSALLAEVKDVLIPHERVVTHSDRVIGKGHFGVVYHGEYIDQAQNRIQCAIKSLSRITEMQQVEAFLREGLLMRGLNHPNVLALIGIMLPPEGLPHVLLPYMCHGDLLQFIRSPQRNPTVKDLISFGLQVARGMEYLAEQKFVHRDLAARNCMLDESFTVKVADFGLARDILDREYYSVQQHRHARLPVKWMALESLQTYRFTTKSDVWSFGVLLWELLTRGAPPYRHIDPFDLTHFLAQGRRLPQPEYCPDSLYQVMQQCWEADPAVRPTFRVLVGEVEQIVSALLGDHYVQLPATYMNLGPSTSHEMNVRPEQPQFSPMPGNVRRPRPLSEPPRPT

Protein sequences, listed by entry. Tags and fused reporters are not part of them. Lines headed by an entry give the natural chain unless they say otherwise; changes in a name come on top.
UniProt P07949, whole entry: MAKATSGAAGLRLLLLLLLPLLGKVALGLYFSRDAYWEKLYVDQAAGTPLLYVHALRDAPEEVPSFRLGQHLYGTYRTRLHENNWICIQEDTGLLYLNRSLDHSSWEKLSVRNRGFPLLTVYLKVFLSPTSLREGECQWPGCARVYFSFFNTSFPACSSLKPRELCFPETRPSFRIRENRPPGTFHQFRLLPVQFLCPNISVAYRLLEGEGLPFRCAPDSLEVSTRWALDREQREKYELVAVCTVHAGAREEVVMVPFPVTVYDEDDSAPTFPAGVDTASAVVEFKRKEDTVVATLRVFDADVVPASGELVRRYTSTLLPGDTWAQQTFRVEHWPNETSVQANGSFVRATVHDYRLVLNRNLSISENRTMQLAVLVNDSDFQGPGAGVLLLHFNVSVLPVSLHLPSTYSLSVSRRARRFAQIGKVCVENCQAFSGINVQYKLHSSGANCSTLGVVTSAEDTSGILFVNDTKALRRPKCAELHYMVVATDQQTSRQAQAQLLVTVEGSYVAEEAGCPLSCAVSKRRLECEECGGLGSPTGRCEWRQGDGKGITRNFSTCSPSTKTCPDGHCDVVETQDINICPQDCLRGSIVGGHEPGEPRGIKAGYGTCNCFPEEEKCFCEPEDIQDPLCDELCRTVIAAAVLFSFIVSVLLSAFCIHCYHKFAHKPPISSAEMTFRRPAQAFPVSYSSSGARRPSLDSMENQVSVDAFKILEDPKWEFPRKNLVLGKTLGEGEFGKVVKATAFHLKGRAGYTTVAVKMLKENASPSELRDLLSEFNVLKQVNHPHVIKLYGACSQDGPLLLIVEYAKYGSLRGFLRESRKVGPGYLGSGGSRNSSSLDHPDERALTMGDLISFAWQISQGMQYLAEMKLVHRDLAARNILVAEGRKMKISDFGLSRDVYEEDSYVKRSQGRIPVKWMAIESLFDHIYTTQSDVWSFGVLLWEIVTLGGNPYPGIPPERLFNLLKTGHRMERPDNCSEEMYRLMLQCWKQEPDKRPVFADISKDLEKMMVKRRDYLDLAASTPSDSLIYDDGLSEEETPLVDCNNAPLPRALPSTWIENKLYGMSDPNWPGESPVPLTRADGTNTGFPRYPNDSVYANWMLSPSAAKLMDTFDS
UniProt P27986, whole entry, looked up: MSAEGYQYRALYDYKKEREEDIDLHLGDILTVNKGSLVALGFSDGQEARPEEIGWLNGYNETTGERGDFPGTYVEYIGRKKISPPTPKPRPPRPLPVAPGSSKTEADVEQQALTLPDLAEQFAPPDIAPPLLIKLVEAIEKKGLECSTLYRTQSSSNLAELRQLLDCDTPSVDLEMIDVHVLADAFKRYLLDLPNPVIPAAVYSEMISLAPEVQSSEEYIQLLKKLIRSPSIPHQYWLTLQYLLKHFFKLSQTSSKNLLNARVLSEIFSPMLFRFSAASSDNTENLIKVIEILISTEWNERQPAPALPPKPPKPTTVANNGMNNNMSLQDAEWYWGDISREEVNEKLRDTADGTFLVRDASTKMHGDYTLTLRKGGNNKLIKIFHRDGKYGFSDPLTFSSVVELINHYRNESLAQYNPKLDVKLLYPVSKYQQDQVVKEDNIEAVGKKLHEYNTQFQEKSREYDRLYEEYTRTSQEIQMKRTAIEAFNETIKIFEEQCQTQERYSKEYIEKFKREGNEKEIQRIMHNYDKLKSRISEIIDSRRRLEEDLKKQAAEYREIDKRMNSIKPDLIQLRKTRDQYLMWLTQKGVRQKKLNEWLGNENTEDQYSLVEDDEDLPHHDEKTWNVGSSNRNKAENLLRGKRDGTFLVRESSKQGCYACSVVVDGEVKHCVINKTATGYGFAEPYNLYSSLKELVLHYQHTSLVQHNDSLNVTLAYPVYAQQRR
UniProt P42338: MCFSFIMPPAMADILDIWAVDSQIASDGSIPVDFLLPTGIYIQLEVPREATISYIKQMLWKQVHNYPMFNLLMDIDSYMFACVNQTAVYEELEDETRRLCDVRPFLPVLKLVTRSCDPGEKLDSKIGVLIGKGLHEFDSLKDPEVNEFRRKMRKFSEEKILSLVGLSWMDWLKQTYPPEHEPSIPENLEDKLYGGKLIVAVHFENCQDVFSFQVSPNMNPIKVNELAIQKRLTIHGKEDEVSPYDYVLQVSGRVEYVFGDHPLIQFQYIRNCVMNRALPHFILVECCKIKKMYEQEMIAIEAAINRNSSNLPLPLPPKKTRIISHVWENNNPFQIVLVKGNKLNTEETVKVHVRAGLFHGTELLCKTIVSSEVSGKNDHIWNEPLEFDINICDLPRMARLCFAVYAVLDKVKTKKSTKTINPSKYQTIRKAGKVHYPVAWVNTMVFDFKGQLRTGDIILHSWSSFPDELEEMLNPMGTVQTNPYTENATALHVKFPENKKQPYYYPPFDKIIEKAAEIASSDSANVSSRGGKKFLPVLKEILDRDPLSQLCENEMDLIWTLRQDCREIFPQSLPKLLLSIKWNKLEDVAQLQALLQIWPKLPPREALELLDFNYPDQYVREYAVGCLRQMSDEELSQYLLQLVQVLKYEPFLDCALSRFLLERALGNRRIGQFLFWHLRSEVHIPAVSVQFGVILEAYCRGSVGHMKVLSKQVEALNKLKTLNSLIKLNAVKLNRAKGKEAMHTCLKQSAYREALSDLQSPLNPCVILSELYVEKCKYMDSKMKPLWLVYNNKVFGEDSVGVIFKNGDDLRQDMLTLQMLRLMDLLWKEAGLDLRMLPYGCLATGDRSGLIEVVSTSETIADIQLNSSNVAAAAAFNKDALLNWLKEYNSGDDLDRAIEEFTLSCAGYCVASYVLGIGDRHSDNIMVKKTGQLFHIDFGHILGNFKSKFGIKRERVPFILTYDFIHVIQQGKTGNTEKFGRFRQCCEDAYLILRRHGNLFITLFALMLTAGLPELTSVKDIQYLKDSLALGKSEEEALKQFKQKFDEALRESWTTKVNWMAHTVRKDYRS
UniProt Q9Y243: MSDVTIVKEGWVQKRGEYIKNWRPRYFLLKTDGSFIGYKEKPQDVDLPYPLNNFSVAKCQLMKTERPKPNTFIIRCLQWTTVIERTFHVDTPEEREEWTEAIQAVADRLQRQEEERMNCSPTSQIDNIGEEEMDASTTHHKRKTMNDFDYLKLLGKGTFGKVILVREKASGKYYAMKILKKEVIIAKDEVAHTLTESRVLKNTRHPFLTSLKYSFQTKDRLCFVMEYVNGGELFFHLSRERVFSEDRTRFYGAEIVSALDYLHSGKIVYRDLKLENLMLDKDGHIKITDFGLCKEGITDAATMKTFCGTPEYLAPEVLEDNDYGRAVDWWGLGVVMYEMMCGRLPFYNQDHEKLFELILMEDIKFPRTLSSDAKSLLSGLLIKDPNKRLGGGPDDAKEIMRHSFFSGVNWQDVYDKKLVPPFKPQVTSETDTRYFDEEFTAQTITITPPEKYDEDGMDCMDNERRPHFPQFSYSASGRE
UniProt P16234: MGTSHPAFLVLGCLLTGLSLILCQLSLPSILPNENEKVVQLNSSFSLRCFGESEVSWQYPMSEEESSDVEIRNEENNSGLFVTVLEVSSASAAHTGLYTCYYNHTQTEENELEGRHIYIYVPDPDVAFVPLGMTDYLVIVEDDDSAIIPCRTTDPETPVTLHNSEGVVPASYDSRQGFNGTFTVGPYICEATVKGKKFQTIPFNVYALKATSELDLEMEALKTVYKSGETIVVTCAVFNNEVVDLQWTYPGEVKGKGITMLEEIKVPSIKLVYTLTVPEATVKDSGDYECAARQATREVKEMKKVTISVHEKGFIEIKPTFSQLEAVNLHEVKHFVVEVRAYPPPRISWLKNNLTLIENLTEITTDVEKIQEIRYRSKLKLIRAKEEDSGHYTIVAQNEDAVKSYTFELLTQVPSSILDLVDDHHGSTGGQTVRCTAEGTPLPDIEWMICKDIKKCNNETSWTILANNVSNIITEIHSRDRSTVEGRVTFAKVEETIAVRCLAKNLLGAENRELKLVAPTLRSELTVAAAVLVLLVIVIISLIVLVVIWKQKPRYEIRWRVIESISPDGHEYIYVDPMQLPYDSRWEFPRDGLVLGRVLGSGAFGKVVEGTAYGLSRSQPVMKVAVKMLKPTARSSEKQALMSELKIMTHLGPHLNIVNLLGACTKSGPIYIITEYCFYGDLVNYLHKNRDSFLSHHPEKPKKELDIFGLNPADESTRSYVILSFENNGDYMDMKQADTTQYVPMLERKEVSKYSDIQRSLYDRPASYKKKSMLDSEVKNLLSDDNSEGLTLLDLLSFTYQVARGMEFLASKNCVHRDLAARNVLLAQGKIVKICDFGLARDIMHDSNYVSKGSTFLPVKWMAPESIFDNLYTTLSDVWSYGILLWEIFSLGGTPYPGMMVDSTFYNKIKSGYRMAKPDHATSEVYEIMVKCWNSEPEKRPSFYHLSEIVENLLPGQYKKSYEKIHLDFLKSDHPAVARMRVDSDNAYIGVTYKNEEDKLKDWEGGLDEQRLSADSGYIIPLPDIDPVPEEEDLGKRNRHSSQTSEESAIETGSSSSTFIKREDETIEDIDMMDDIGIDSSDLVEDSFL
UniProt P31749: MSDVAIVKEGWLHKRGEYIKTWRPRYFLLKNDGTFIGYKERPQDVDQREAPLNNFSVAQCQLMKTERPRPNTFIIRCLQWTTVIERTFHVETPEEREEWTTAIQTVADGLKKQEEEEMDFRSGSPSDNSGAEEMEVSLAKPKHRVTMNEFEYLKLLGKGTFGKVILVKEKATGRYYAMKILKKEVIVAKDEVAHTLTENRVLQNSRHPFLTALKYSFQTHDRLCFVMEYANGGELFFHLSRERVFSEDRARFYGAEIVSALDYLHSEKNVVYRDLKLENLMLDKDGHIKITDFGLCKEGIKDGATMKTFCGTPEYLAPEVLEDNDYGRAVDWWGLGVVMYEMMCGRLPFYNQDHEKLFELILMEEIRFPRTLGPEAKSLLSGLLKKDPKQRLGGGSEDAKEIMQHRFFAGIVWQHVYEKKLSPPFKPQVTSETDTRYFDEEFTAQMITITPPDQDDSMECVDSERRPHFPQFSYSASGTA
UniProt P17948, whole entry: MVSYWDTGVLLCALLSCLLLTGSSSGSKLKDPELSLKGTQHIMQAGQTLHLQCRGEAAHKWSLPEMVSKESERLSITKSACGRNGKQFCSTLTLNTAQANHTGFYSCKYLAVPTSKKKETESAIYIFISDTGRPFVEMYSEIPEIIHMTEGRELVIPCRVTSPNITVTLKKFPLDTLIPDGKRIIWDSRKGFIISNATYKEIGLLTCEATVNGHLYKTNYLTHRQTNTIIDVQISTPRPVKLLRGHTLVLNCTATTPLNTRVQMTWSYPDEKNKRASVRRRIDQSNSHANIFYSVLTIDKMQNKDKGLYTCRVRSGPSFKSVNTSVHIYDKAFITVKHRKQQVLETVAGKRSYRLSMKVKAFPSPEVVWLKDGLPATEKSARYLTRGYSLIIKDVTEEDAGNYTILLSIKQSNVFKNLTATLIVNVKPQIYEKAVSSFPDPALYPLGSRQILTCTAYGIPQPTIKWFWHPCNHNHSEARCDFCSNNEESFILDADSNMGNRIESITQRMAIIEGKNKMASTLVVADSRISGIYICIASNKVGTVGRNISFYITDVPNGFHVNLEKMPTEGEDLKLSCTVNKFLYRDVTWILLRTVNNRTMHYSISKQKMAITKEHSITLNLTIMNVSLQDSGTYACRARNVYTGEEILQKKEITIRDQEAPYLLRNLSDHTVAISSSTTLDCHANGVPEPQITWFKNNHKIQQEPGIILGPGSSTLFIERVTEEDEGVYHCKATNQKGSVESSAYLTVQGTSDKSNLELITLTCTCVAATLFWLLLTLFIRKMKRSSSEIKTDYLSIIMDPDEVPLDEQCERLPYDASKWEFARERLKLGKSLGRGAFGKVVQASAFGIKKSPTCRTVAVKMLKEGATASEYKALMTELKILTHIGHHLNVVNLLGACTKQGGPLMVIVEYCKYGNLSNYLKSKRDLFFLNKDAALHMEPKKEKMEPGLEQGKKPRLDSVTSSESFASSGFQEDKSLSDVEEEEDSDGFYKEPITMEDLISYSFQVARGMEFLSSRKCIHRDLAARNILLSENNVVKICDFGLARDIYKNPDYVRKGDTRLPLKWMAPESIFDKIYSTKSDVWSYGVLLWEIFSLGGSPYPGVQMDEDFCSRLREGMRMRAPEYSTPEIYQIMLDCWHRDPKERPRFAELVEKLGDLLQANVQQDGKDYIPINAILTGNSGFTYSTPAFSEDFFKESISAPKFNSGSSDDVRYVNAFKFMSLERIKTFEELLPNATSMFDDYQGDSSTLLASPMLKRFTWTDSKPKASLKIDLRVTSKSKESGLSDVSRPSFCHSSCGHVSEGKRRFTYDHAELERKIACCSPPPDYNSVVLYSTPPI

[2] = biological target: Vascular endothelial growth factor receptor 2 (Homo sapiens) (UniProt P35968); assay: Inhibition of KDR (unknown origin) at 10 uM by radiometric assay relative to control
[3] = biological target: Dual specificity mitogen-activated protein kinase kinase 1 (Homo sapiens) (UniProt Q02750); assay: Inhibition of MAP2K1 (unknown origin) at 10 uM by radiometric assay relative to control
[4] = biological target: Receptor-type tyrosine-protein kinase FLT3 (Homo sapiens) (UniProt P36888); assay: Inhibition of human FLT3 at 10 uM by radiometric assay relative to control
[5] = test system: Receptor-type tyrosine-protein kinase FLT3 (Homo sapiens), P36888 [D835Y]; assay: Inhibition of human FLT3 D835Y mutant at 25 uM by radiometric assay relative to control
[6] = biological target: ALK tyrosine kinase receptor (Homo sapiens) (UniProt Q9UM73); assay: Inhibition of ALK (unknown origin) at 10 uM by radiometric assay relative to control
[7] = biological target: Hepatocyte growth factor receptor (Homo sapiens) (UniProt P08581); assay: Inhibition of MET (unknown origin) at 10 uM by radiometric assay relative to control
[8] = test system: Receptor-type tyrosine-protein kinase FLT3 (Homo sapiens), P36888 [D835Y]; assay: Inhibition of human FLT3 D835Y mutant at 10 uM by radiometric assay relative to control
[9] = biological target: Receptor-type tyrosine-protein kinase FLT3 (Homo sapiens) (UniProt P36888); assay: Inhibition of human FLT3 at 25 uM by radiometric assay relative to control
[10] = biological target: Proto-oncogene tyrosine-protein kinase receptor Ret (Homo sapiens) (UniProt P07949); assay: Inhibition of RET (unknown origin) at 10 uM by radiometric assay relative to control
[11] = biological target: Platelet-derived growth factor receptor beta (Homo sapiens) (UniProt P09619); assay: Inhibition of PDGFRB (unknown origin) at 10 uM by radiometric assay relative to control
[12] = biological target: PI3K p110 beta/p85 alpha (Homo sapiens) (UniProt P27986+P42338); assay: Inhibition of PIK3CB/PIK3R1 (unknown origin) at 10 uM by radiometric assay relative to control; format: protein-complex assay
[13] = biological target: Macrophage colony-stimulating factor 1 receptor (Homo sapiens) (UniProt P07333); assay: Inhibition of CSF1R (unknown origin) at 10 uM by radiometric assay relative to control
[14] = biological target: T2, Tyrosine-protein kinase receptor UFO (Homo sapiens) (UniProt P30530); assay: Inhibition of AXL (unknown origin) at 10 uM by radiometric assay relative to control
T2 sequence (whole entry): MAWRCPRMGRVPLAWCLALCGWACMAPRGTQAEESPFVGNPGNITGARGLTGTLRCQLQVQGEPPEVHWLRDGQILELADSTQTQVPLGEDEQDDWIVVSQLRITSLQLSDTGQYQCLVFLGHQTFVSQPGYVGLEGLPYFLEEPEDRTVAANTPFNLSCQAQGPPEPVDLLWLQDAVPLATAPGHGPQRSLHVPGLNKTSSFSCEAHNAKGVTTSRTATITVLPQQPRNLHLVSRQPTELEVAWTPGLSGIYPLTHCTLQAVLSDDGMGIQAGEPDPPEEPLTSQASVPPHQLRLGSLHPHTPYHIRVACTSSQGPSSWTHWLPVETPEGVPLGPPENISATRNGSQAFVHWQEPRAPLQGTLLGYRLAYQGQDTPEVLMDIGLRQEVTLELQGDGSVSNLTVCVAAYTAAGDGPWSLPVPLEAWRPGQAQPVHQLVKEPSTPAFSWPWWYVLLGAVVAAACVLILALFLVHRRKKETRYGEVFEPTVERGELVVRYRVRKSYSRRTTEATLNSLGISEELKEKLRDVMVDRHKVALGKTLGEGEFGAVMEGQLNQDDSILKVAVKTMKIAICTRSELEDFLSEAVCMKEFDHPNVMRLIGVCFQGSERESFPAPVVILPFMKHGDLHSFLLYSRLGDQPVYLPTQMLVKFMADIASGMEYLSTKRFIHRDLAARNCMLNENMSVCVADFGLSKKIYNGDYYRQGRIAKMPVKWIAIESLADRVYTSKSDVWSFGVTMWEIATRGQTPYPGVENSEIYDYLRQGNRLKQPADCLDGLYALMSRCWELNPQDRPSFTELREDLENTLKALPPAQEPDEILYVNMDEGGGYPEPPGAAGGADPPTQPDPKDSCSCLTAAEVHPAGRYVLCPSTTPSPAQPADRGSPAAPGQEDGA

[15] = biological target: Serine/threonine-protein kinase mTOR (Homo sapiens) (UniProt P42345); assay: Inhibition of MTOR (unknown origin) at 10 uM by radiometric assay relative to control
[16] = biological target: Mast/stem cell growth factor receptor Kit (Homo sapiens) (UniProt P10721); assay: Inhibition of KIT (unknown origin) at 10 uM by radiometric assay relative to control
[17] = biological target: RAC-gamma serine/threonine-protein kinase (Homo sapiens) (UniProt Q9Y243); assay: Inhibition of AKT3 (unknown origin) at 10 uM by radiometric assay relative to control
[18] = biological target: Platelet-derived growth factor receptor alpha (Homo sapiens) (UniProt P16234); assay: Inhibition of PDGFRA (unknown origin) at 10 uM by radiometric assay relative to control
[19] = biological target: RAC-alpha serine/threonine-protein kinase (Homo sapiens) (UniProt P31749); assay: Inhibition of AKT1 (unknown origin) at 10 uM by radiometric assay relative to control
[20] = biological target: Vascular endothelial growth factor receptor 1 (Homo sapiens) (UniProt P17948); assay: Inhibition of FLT1 (unknown origin) at 10 uM by radiometric assay relative to control
[21] = biological target: Epidermal growth factor receptor (Homo sapiens) (UniProt P00533); assay: Inhibition of EGFR (unknown origin) at 10 uM by radiometric assay relative to control
[22] = biological target: Mitogen-activated protein kinase 1 (Homo sapiens) (UniProt P28482); assay: Inhibition of MAPK1 (unknown origin) at 10 uM by radiometric assay relative to control

| Compound | inhibition [1] | inhibition [2] | inhibition [4] | inhibition [5] | inhibition [7] | inhibition [8] | inhibition [9] | inhibition [10] | inhibition [11] | inhibition [13] | inhibition [14] | inhibition [16] | inhibition [18] | further results |
| --- | --- | --- | --- | --- | --- | --- | --- | --- | --- | --- | --- | --- | --- | --- |
| O=C1NC2(Nc3c(Br)cc(Br)cc31)C(=O)N(Cc1ccc(Br)cc1)c1ccccc12 (centres undefined) | -8% | 7% | 17% | 5% | 14% | -7% | 15% | 0% | 12% |  |  |  |  | inhibition [3]: -6%; inhibition [6]: 3% |
| O=C1NC2(Nc3c(Br)cc(Br)cc31)C(=O)N(Cc1ccccc1)c1ccccc12 (centres undefined) |  | 11% |  |  | 38% |  |  | -9% | 21% | -10% | -1% | 6% | -2% | inhibition [12]: 3%; inhibition [15]: -3%; inhibition [17]: 26% |
| Cc1ccc(CN2C(=O)C3(NC(=O)c4cc(Br)cc(Br)c4N3)c3ccccc32)cc1 (centres undefined) | -6% | 15% | 51% | 62% | 3% | 23% | 55% | 6% | 23% | -9% | 9% | -5% | 11% | inhibition [19]: 17%; inhibition [20]: -7%; inhibition [21]: 5%; inhibition [22]: 3% |

— ChEMBL document CHEMBL5325463, “Novel spiroindoline quinazolinedione derivatives as anticancer agents and potential FLT3 kinase inhibitors” (Bioorg Med Chem, 2023)
